The text below walks through data of US9604931B2, “Nuclear receptor binding agents” (GTx, Inc., priority 2007, dated 2017).

By UniProt entry, the sequences of proteins in these tests, tags left out.
UniProt P03372, whole entry, looked up: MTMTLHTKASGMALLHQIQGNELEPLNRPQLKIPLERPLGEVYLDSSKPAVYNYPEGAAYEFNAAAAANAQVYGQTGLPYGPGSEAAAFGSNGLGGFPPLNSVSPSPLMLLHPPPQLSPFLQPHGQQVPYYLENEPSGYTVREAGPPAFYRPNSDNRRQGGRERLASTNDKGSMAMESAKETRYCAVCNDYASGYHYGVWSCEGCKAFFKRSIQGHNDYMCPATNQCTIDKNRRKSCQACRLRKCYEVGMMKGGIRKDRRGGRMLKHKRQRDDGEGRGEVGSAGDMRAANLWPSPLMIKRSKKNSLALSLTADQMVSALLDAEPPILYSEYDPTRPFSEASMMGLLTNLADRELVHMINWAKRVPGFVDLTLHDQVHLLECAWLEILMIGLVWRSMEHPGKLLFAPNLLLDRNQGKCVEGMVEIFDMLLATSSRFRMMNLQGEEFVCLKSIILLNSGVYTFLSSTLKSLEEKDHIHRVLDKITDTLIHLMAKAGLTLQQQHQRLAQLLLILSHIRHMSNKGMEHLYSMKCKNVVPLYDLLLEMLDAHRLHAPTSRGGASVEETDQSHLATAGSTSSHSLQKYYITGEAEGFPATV
UniProt Q92731, whole entry, looked up: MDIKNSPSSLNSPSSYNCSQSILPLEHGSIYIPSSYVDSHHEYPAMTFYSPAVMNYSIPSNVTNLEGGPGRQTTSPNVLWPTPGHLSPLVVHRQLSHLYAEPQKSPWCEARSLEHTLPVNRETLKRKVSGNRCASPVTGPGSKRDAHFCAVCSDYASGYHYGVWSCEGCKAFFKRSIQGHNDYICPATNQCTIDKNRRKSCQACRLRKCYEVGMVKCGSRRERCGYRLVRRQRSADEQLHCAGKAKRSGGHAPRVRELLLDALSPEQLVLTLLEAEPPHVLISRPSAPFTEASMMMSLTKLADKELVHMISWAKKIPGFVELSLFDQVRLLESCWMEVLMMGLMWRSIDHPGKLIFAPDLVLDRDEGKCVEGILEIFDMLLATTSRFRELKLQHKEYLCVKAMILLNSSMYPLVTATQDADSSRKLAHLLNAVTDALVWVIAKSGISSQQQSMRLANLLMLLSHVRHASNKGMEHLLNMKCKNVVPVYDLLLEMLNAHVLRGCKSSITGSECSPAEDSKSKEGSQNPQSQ

Assay [1] concerns the target ERα ligand binding domain (Homo sapiens, UniProt P03372). The following applies: read-out: ER-α binding constant (Ki).
The target of assay [2] is ERβ ligand binding domain (Homo sapiens, UniProt Q92731).

By Ki is commonly meant the equilibrium dissociation constant of an inhibitor or competing ligand from its target. With `O=c1c2ccc(O)cc2c(-c2ccccc2)cn1-c1ccc(O)cc1` [15a, 6-hydroxy-2-(4-hydroxyphenyl)-4-phenylisoquinolin-1(2H)-one], the Ki in assay [1] came to 1780 nM.
For `COc1ccc(-c2cn(-c3ccc(O)cc3)c(=O)c3c(O)cc(O)cc23)cc1` [15g, 6,8-dihydroxy-2-(4-hydroxyphenyl)-4-(4-methoxyphenyl)isoquinolin-1(2H)-one], in assay [1], the Ki stood at 70 nM. Moreover, the “Ki Ratio (ER-α/ER-β)” value in assay [2] came to 145.8.
